miR122 inh = blocks miR-122 activity in Huh7 sensor cells; activation (reporter increase), % at 12.5 µM; AID 602342; Huh7 miR-122 Renilla luciferase sensor, 48 h; neutral wells = 0, positive control = 100; 340,000 tested, 0.3% active;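 active means mean replicate activation score at least 90 and every replicate individually at or above 90; inconclusive means only one of the two criteria met; inactive means neither criterion met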;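 further: higher luciferase means less miR-122 activity so hits act as miR-122 inhibitors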
UUG fidelity = modulators of yeast start codon fidelity, primary screen, whole organism, S. cerevisiae, single point, plate reader | AID 602363, 2012 | actives 0.13% (n = 350,000) | activity score, % at 18.7 µM | S. cerevisiae UUG-firefly luciferase reporter, luminescence/redox ratio;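 active means replicate mean at a twofold rise or more, about +100% in these data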;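 further: firefly luciferase made from a UUG start codon reports start codon fidelity; reporter light over untreated wells divided by growth signal over untreated wells; some hits fall short of that in this replicate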
Wnt bcat act = activates Wnt/beta-catenin signaling in a reporter cell assay; activator, plate reader; activation, % at 9.35 µM; 300,000 tested, 1.2% active; AID 743398; in the data active means activation above about 30%, passing the limit was not always enough; inconclusive means no clear call, values can overlap the other calls
esBAF inh = inhibitors of esBAF chromatin remodeling in mouse ES cells | Bmi1-luciferase knock-in reporter, 24 h; 100% = twice the neutral-well signal | reporter increase, % at 12.5 µM | 350,000 tested, 2% active | AID 602393; in the data active means activation above about 40%; inconclusive means no clear call, values can overlap the other calls;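 further: a rise in the Bmi1 reporter signal indicates esBAF inhibition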
PglD DTNB = PglD (C. jejuni) enzyme inhibition; purified PglD enzyme, DTNB colorimetric CoA detection; inhibition, % at 12.5 µM; 360,000 tested, 0.098% active; AID 602405; in the data active means inhibition above about 16%, passing the limit was not always enough; inconclusive means no clear call, values can overlap the other calls
MITF act = MITF TRPM1 promoter activation in melanoma cells; SK-MEL-5 TRPM1-promoter luciferase, 24 h; % of positive control, neutral wells = 0; activation, % at 12.5 µM; 300,000 tested, 0.75% active;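 active means mean activation of at least 80% with every replicate also reaching 80%; inconclusive means mean reaches 80% but some replicate falls short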
Large screens that a line does not name were inactive. Compounds with a hit are over-represented: about 2.8% of the library has one in this group of screens.

Cc1cc(OCc2cc(C(=O)N(C)C3CCOCC3)no2)cc(C)c1Cl	esBAF inh 61
Cc1ccc(OCc2cc(C(=O)N(C)CC3CCOCC3)no2)cc1C	esBAF inh 69, MITF act 96
CCN1[C@@H]2c3ccc(-c4ccccc4)c(=O)n3C[C@H]1[C@H](CO)[C@H]2C(=O)NCc1ccccc1	none (no result: Wnt bcat act, MITF act)
NS(=O)(=O)c1ccc(NC(=S)Nc2ccc(S(=O)(=O)N3CCCC3)cc2)cc1	none (no result: miR122 inh, UUG fidelity, esBAF inh, PglD DTNB)
O=S(=O)(c1ccc(NC(=S)NN=Cc2ccccc2O)cc1)N1CCCCC1	Wnt bcat act 67 (no result: UUG fidelity, esBAF inh, PglD DTNB, MITF act)
O=S(=O)(c1ccc(NC(=S)NCc2cccnc2)cc1)N1CCCCC1	Wnt bcat act 47 (no result: esBAF inh, MITF act)
COC(=O)C[C@H]1C[C@@H]2c3cc(NC(=O)NC4CCCC4)ccc3O[C@@H]2[C@H](CO)O1	none (no result: UUG fidelity, Wnt bcat act, MITF act)
COc1ccc(OC)c(C2C3=C(COC3=O)Nc3cc4c(cc32)OCO4)c1 (stereo not drawn)	miR122 inh 140 (no result: Wnt bcat act)
COc1ccc(C2C3=C(CC(C)(C)CC3=O)Nc3cc4c(cc32)OCO4)cc1 (stereo not drawn)	none (no result: Wnt bcat act, esBAF inh)
COC(=O)C(C)n1cnc2c(cnn2-c2ccc(Cl)cc2)c1=O (stereo not drawn)	esBAF inh 53 (no result: Wnt bcat act)
CCOC(=O)Cn1cnc2c(cnn2-c2ccc(Cl)cc2)c1=O	none (no result: Wnt bcat act)
O=C(NCCc1ccccc1)c1ccc(Cl)c([N+](=O)[O-])c1	none
CC(C)(C)c1ccc(C(=O)NCCc2ccccc2)cc1	MITF act inconclusive
Cc1cc(C(=O)NCCc2ccccc2)ccc1[N+](=O)[O-]	MITF act 92
Cc1cccc(C(=O)NCCc2ccccc2)c1	Wnt bcat act inconclusive, MITF act 105
O=C(/C=C/c1ccccc1)NCCc1ccccc1	esBAF inh 89 (no result: MITF act)
Cc1cc(C)nc(N/C(=N\S(=O)(=O)Cc2ccccc2)Nc2ccccc2Br)n1	miR122 inh 180 (no result: esBAF inh)
COCc1nnc(NC(=O)C2CC(=O)N(c3ccc(C)c(Cl)c3)C2)s1 (stereo not drawn)	none (no result: miR122 inh, UUG fidelity, esBAF inh, PglD DTNB)
Cc1ccc(N2CC(C(=O)Nc3nccs3)CC2=O)cc1Cl (stereo not drawn)	miR122 inh 96 (no result: Wnt bcat act)
Cc1ccnc(NC(=O)C2CC(=O)N(c3ccc4c(c3)OCCO4)C2)c1 (stereo not drawn)	Wnt bcat act 46, MITF act 99
O=S(=O)(Cc1ccccc1)N1CCCCN2[C@H](CO)[C@H](c3ccc(-c4cncnc4)cc3)[C@H]2C1	none (no result: Wnt bcat act, esBAF inh, MITF act)
OC[C@@H]1[C@@H](c2ccc(/C=C/c3ccccc3)cc2)[C@@H]2CN(Cc3ccncc3)CCCCN12	none (no result: Wnt bcat act, MITF act)
Cc1cc(C)c2[nH]c(O)c(N=Nc3ccc(C(=O)O)cc3)c2c1	esBAF inh 47
Cc1cc(OCC(=O)N(C)Cc2ccccc2)ccc1Br	esBAF inh 43
COc1ccc(CN(C)C[C@H]2OCCCC[C@H](C)Oc3ccc(NS(=O)(=O)c4ccc(Cl)cc4)cc3C(=O)N([C@@H](C)CO)C[C@@H]2C)cc1	none (no result: Wnt bcat act, MITF act)
Cn1nccc1C(=O)N/N=C/c1cccnc1	none
Cc1occc1C(=O)N/N=C/c1ccccc1[N+](=O)[O-]	Wnt bcat act 44 (no result: esBAF inh, MITF act)
COc1cccc(/C=N/NC(=O)c2ccoc2C)c1O	none
Cc1ccc(C(=O)N/N=C\c2ccccc2[N+](=O)[O-])cn1	esBAF inh 53 (no result: UUG fidelity, PglD DTNB)
Cn1nccc1C(=O)N/N=C/c1ccccc1[N+](=O)[O-]	Wnt bcat act 41
COC(=O)c1c(C)[nH]c(C(=O)C(C)OC(=O)C2CC(=O)N(CCc3ccccc3)C2)c1C (stereo not drawn)	Wnt bcat act 50
COC(=O)c1c(C)[nH]c(C(=O)C(C)OC(=O)C2CC(=O)N(c3ccc(C)cc3)C2)c1C (stereo not drawn)	none (no result: miR122 inh)
COCCOc1ccc(C(F)(F)F)cc1Nc1nc2ccccc2o1	esBAF inh 62 (no result: Wnt bcat act)
CCC(C)[C@H](N)c1cn([C@@H](Cc2cc3ccccc3[nH]2)C(=O)N2CCNCC2)nn1 (stereo partly drawn)	Wnt bcat act 45 (no result: miR122 inh)
COc1ccc(NC(=O)CS(=O)(=O)Cc2nc(-c3ccc(C)cc3)oc2C)cc1	none (no result: miR122 inh, UUG fidelity, esBAF inh, PglD DTNB)
COc1ccc(-c2nc(CS(=O)(=O)CC(=O)Nc3ccc(Cl)cc3)c(C)o2)cc1	esBAF inh 66
COCCCNC(=O)CS(=O)(=O)Cc1nc(-c2cccc(OC)c2)oc1C	none (no result: Wnt bcat act, MITF act)
COc1cccc(-c2nc(CS(=O)(=O)CC(=O)NCCC(C)C)c(C)o2)c1	Wnt bcat act 38
Cc1cc2oc(=O)cc(COC(=O)c3n[nH]c4ccccc34)c2cc1C	MITF act 92 (no result: Wnt bcat act)
COc1ccc2c(COC(=O)c3n[nH]c4ccccc34)cc(=O)oc2c1	esBAF inh 46 (no result: MITF act)
COc1ccc(-c2nnc(N)s2)cc1	none
CCCOc1ccc(-c2nnc(N)s2)cc1	Wnt bcat act 36, esBAF inh inconclusive
O=C(/C=C/c1ccco1)NC(=S)Nc1cc(-c2nc3ccccc3s2)ccc1Cl	Wnt bcat act 50 (no result: miR122 inh, UUG fidelity, esBAF inh, PglD DTNB)
Cc1ccc(-c2nc3ccccc3s2)cc1NC(=S)NC(=O)/C=C/c1ccco1	esBAF inh 65 (no result: Wnt bcat act)
O=C(/C=C/c1ccco1)NC(=S)Nc1cccc(-c2nc3ccccc3s2)c1	none
CCCC#Cc1cnc2c(c1)C(=O)N([C@H](C)CO)C[C@@H](C)[C@H](CN(C)C(=O)c1ccc3c(c1)OCO3)O2	none (no result: Wnt bcat act, MITF act)
COc1cccc(S(=O)(=O)Nc2ccc3c(c2)[C@@H]2C[C@@H](CC(=O)N(C)C)O[C@@H](CO)[C@@H]2O3)c1	none (no result: Wnt bcat act, MITF act)
CCCNC(=O)Nc1ccc2c(c1)C(=O)N(C)C[C@H](OC)[C@H](C)CN(CC1CCCC1)[C@H](C)CO2	none (no result: UUG fidelity, Wnt bcat act, PglD DTNB, MITF act)
O=C1CCCC2=C1C(c1ccc(Cl)cc1)n1c(s/c(=C\c3ccc4ccncc4c3)c1=O)=N2 (stereo not drawn)	Wnt bcat act 36 (no result: miR122 inh, UUG fidelity, esBAF inh, PglD DTNB)
CCOC(=O)C1=C(C)N=c2s/c(=C/c3ccc(OCC(=O)O)c(OC)c3)c(=O)n2C1c1ccc(Cl)cc1 (stereo not drawn)	none (no result: miR122 inh, UUG fidelity, esBAF inh, PglD DTNB, MITF act)
C[C@@H]1CN([C@H](C)CO)C(=O)c2cccc(NC(=O)C3CC3)c2O[C@H]1CN(C)C(=O)Nc1cccc2ccccc12	none (no result: Wnt bcat act, MITF act)
CC1CCC(=C(C#N)c2nc(-c3cc4ccccc4oc3=O)cs2)CC1 (stereo not drawn)	MITF act 88 (no result: Wnt bcat act)
CC(C)(CNC(=O)c1cccc(S(=O)(=O)N2CCCCC2)c1)N1CCOCC1	Wnt bcat act 119 (no result: MITF act)
O=C(NNS(=O)(=O)c1ccc(Cl)cc1)c1cccc(S(=O)(=O)N2CCOCC2)c1	miR122 inh 249
O=C(NCCN1CCOCC1)c1cccc(S(=O)(=O)N2CCCCC2)c1	none (no result: esBAF inh)
COCC(=O)N[C@@H]1C=C[C@H](CC(=O)N2CCCCC2)O[C@@H]1CO	none (no result: UUG fidelity, Wnt bcat act, PglD DTNB, MITF act)
CN(C(=O)COC(=O)c1cccc(Cl)c1)C1CCS(=O)(=O)C1 (stereo not drawn)	none
